# Measured values taken from patent US20260102425A1 (Allergan, Inc., priority 2018, published 2026).
# Legend:
# rabbits [1] = settings: not washed out, over 24 hours, FIG. 8
# rabbits [2] = settings: 250 ul, not washed out, FIG. 7; for corneal staining: at 24 hrs
substance,measurement,setting,value
sodium chlorite,ocular surface hyperemic response,"rabbits [1]; 8000 ppm sodium chlorite activated with buffer greater than or equal to pH 3, 250 ul",elicited no response
same,ocular surface hyperemic response,"rabbits [1]; 8000 ppm sodium chlorite activated with pH 2 buffer, 250 ul",trace response
same,visual disturbance over a 24-hour period compared with povidone-iodine 5% eye wash protocol,"Dutch-Belted rabbits; sodium chlorite 1600 ppm eye drop, rabbits with normal vision",less visual disturbance
same,"significance of peak visual deficit, study eye compared with non-study eye","Dutch-Belted rabbits; sodium chlorite 1600 ppm, at 1 hour, p=0.06, paired Student's t test",not statistically significant
same,punctate corneal staining (mean NEI grade 0 to 3),"rabbits [2]; sodium chlorite 8000 ppm activated with pH 3 buffer, at 24 hours, n=8",1.0±1.1
same,corneal staining,"rabbits [2]; sodium chlorite 8000 ppm activated with pH 4 buffer, n=8",did not show any corneal staining
same,corneal staining,"rabbits [2]; sodium chlorite 8000 ppm activated with pH 5 buffer, n=4",did not show any corneal staining

# Like-named read-outs stand apart in the source and are kept apart here.
